One assay addresses I530S DIAPH1-NT (human). As to the kind of experiment: SEC-MALS. For orientation: SEC sorts molecules by how far they enter the pores of the column.
For a further assay, the target named is WT DIAPH1-NT (human). As to the kind of experiment: SEC-MALS.

Consider I530S DIAPH1-NT (domain or fragment), for which the stoichiometry N (usually the number of molecules, sites or subunits per partner or assembly) with I530S DIAPH1-NT (human) is 2.
As to WT DIAPH1-NT (domain or fragment), the stoichiometry N with WT DIAPH1-NT (human) is 2.

The values above are taken from article PMC8447886.
